Ab-14 heavy chain CDR variants: yeast mating affinities

Values reported by Engelhart et al. 2022, doi:10.1038/s41597-022-01779-4 (FLAb copy).

All variants were tested on one target, the spike HR2 peptide PDVDLGDISGINAS (SARS-CoV-2).

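The parent was found by panning a naive human phage display library on the peptide. In library AAYL49, one, two or three CDR residues were substituted; doubles and triples were drawn at random. AlphaSeq pools MATa yeast showing the antibodies with MATalpha yeast showing the peptide. Pairs that bind mate more often; barcode pairs of the diploids are counted by sequencing. A regression on co-assayed BCL2-family reference pairs converts the normalised counts of each replicate to an apparent Kd. Each pool was mated in three replicate cultures.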

Ab-14 is the parent antibody, in scFv form: VH, then a (GGGGS)3 linker, then VL. The light chain is unchanged in all variants.
VH: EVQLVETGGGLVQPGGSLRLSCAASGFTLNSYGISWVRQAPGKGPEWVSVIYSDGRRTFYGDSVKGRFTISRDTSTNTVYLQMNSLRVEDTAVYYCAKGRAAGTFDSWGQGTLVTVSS
VL: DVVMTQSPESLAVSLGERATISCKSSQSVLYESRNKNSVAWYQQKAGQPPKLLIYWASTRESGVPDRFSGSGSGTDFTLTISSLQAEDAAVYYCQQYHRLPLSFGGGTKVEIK

Substitutions are numbered in sequence along the VH above, starting at 1 (not Kabat). Values are log10 of the apparent Kd in nM; lower means stronger binding. Averages over replicates are reported, and they cover detected replicates only. Where no diploid with the target was found in that replicate, the entry reads "nd": below detection, most likely a poor binder, though not proof of it. As a blank, each scFv also met three strains without target: over library AAYL49, 15% of these pairings were detected, typically at 4.06 and seldom below 2.83. In this assay the parent's reference entry averaged 0.65; its copy inside this library read 4.11 (one replicate of three).

changes,log10 Kd (nM) by replicate,mean log10 Kd (nM)
V50Y I51S T58S,nd nd nd,nd
V64L G103F,5.07 4.18 nd,4.63
G61V S63A A102T,0.99 0.95 0.59,0.84
L29P S63C R100D,nd nd nd,nd
D54T T58C,nd nd nd,nd
F27R G33A,nd 2.97 nd,2.97
F27T G33W F105Q,nd 2.70 nd,2.70
S31G I51A S107H,nd 5.02 nd,5.02
G103I T104C S107N,nd nd nd,nd
V50S G61M V64T,nd nd nd,nd
R56I S107Q,0.37 0.62 0.03,0.34
V50C G61P S107D,nd 4.24 nd,4.24
Y52Q G61K S63R,nd nd nd,nd
T28C F105G S107Y,3.91 3.81 4.25,3.99
G33M R56D S63H,3.85 3.86 nd,3.86
L29V D54R S63D,nd nd nd,nd
F27S R56M V64G,nd nd 5.81,5.81
V64R G99Y,nd nd nd,nd
I51A Y52W A102I,nd nd nd,nd
F59E Y60V D62E,nd 4.31 nd,4.31
S35Y Y52G D62A,nd nd nd,nd
F27R F59M,3.65 2.73 2.81,3.06
Y52G F59M Y60E,4.57 3.67 4.75,4.33
N30T S35W T104A,4.00 4.02 nd,4.01
S31V Y60F,4.72 3.36 3.75,3.95
D62S K65G G99F,nd nd nd,nd
T28K Y52A F59N,3.09 nd nd,3.09
S53P G55F A101N,nd nd 4.89,4.89
Y52T S53G V64K,nd nd nd,nd
R56P T58H,3.24 5.21 4.59,4.35

Picked from the list: the 4 lowest averages where every replicate gave a value.

changes,log10 Kd (nM) by replicate,mean log10 Kd (nM)
R56I S107Q,0.37 0.62 0.03,0.34
G61V S63A A102T,0.99 0.95 0.59,0.84
F27R F59M,3.65 2.73 2.81,3.06
S31V Y60F,4.72 3.36 3.75,3.95